The record followed here is ChEMBL document CHEMBL2346654, “Discovery of biological evaluation of pyrazole/imidazole amides as mGlu5 receptor negative allosteric modulators” (Bioorg Med Chem Lett, 2013).

Protein sequences, listed by entry. Tags and fused reporters are not part of them.
UniProt P41594, whole entry: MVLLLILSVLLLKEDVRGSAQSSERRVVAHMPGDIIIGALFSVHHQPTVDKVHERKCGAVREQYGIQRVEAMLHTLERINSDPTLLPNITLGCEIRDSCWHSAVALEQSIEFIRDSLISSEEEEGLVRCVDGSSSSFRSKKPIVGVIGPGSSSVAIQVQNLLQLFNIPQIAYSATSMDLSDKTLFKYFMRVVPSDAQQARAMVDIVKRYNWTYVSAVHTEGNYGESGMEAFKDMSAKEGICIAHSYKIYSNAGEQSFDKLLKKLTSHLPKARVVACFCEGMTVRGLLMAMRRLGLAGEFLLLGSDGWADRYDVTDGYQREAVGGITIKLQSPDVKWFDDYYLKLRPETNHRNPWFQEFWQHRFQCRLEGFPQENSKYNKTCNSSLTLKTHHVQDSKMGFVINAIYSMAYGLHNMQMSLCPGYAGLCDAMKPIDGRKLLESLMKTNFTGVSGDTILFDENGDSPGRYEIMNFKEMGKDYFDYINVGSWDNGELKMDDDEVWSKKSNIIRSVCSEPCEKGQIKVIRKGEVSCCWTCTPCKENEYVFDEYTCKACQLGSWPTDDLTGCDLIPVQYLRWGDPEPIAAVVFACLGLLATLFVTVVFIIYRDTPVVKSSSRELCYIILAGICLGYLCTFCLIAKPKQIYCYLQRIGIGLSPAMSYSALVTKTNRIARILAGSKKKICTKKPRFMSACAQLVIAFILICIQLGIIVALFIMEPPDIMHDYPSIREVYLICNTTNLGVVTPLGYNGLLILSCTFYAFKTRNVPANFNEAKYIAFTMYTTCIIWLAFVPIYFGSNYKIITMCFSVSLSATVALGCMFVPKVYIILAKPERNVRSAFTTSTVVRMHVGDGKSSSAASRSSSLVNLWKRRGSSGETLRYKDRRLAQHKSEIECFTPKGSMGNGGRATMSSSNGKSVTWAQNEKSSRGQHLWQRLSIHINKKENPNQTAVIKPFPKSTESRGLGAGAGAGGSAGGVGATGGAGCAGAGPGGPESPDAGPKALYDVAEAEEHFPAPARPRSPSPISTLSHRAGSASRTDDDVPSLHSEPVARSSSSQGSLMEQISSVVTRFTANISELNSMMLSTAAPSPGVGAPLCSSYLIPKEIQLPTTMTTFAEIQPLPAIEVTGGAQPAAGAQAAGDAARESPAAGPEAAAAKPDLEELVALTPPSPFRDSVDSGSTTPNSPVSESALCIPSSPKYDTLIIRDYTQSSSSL

This assay deals with Metabotropic glutamate receptor 5 (Homo sapiens, UniProt P41594). In words: Negative allosteric modulation of human mGluR5 expressed in HEK293 cells assessed as calcium mobilization by FLIPR assay. The class given is functional, cell-based.

For the compound `Cc1nc(C#Cc2cccnc2)cs1`, the IC50 (in general, the concentration needed to halve the response being measured) was determined as 12 nM.
